Values quoted from earlier work in patent US5972958A, “4-aminoalkoxy-1,3-dihydro-benzoimidazol-2-thiones” (American Home Products Corporation, priority 1998, dated 1999).

System: β-adrenergic receptor
Settings: J. Biol. Chem., 258, 3496-3502, 1983; cited from earlier work

CC(C)(C)NCC(O)COc1cccc2[nH]c(=O)[nH]c12 (stereo not shown) [CGP-12177]
β-adrenergic receptor antagonist activity: β-adrenergic receptor antagonist
